Results from PubChem BioAssay AID624466 (The Scripps Research Institute Molecular Screening Center, 2012).
The list shows a part of the results, in another mix than the full data. Calls of active or inactive are those of the source.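 Rule for the calls: active = inhibition above a per-plate cutoff, the mean inhibition of test compounds on that plate plus 3 SD (cut at about 49% in these data); inactive = the rest.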

Amino acid sequences for entries named in this document (tags omitted).
UniProt Q96RJ0, whole entry: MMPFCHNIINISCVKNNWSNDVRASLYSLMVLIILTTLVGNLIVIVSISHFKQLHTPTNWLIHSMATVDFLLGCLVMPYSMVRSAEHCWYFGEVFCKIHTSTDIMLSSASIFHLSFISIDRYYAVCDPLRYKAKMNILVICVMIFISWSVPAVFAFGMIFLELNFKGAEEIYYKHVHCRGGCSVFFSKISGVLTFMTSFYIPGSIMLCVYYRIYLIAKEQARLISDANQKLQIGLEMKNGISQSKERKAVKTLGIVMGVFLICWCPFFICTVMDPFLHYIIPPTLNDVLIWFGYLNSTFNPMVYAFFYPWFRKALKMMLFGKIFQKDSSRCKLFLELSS

Each molecule was assayed against Trace amine-associated receptor 1 (Homo sapiens) (UniProt Q96RJ0) (assay: blockers of beta-PEA-driven TAAR1 calcium signal – Fluo-8 calcium fluorescence, CHO RD-HGA16 cells, primary screen (AID 624466;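 note: 0% = DMSO plus EC80 beta-PEA response and 100% = DMSO alone without agonist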)). Details: CHO RD-HGA16 TAAR1, Fluo-8 calcium fluorescence, antagonist; at 3 µM; active compounds read high.
With `CCN1CCC(Nc2ccc(Cl)cc2)CC1` the inhibition was inactive: -13.5%. `N#CC1(Nc2ccccc2)CCN(CCc2ccccc2)CC1` was tested, and the inhibition was inactive: -5.38%. With `O=c1[nH]c2ccccc2n1C1CCN(C(c2ccccc2OC(F)(F)F)c2nnnn2C2CCCC2)CC1` (stereo unspecified) the inhibition was inactive: 40.5%. For `CSc1ccc(C(=O)NCC2(N3CCOCC3)CCCCC2)cc1`, the inhibition was inactive: -32.1%. For `O=C(NCC1(N2CCCCC2)CCCCC1)c1cccc([N+](=O)[O-])c1`, the inhibition was inactive: -10.3%. In the case of `CC(C)(C)n1nnnc1C(c1ccccc1OC(F)(F)F)N1CCC(n2c(=O)[nH]c3ccccc32)CC1` (stereo unspecified), the inhibition is reported as inactive: 35.6%. `O=C(NCC1(N2CCCCC2)CCCCC1)c1ccc(OC(F)F)cc1` was tested, and the inhibition was inactive: -1.59%. For `O=C(NCC1(N2CCOCC2)CCCCC1)c1cc(=O)[nH]c2ccccc12`, the inhibition was inactive: -3.86%. In the case of `COc1cc(C(=O)NCC2(N3CCCCC3)CCCCC2)ccc1OC(F)F`, the inhibition is reported as inactive: -11.9%. `CCCCn1nnnc1C(c1cccc2ccccc12)N1CCC(n2c(=O)[nH]c3ccccc32)CC1` (stereo unspecified) was tested, and the inhibition was inactive: 37.6%. `COc1ccc(NC2CCN(C(=O)OC(C)(C)C)CC2)cc1` was tested, and the inhibition was inactive: -29.1%. With `CC(C)c1ccc(C(=O)NCC2(N3CCOCC3)CCCCC2)cc1` the inhibition was inactive: -33.4%. With `CN1CCN(CCOC(=O)C(O)(c2ccccc2)c2ccccc2)CC1` the inhibition was inactive: -1.68%. `O=C(NCC1(N2CCCCC2)CCCCC1)c1cccc(C(F)(F)F)c1` was tested, and the inhibition was inactive: 4.38%. For `COc1cc(OC)c(C(=O)NCC2(N(C)C)CCCCC2)cc1OC`, the inhibition was inactive: -5.97%. In the case of `CCC(c1nnnn1C(C)(C)C)N1CCC(n2c(=O)[nH]c3ccccc32)CC1` (stereo unspecified), the inhibition is reported as inactive: -1.76%. For `O=C(NCC1(N2CCOCC2)CCCCC1)c1cc(F)c(F)cc1Cl`, the inhibition was inactive: -4.91%. With `CCCCn1nnnc1C(c1ccnc2ccccc12)N1CCC(n2c(=O)[nH]c3ccccc32)CC1` (stereo unspecified) the inhibition was inactive: 46.5%. `CC(C)c1ccc(NC2CCN(C(=O)OC(C)(C)C)CC2)cc1` was tested, and the inhibition was inactive: -9.95%. With `COc1ccc(CN(CCCl)CCCl)cc1Cl` the inhibition was inactive: 6.98%. In the case of `CN(C)c1cccc(C(=O)NCC2(N3CCCCC3)CCCCC2)c1`, the inhibition is reported as inactive: -22.1%. `COc1ccc(C(c2nnnn2C2CCCC2)N2CCC(n3c(=O)[nH]c4ccccc43)CC2)cc1` (stereo unspecified) was tested, and the inhibition was inactive: -13.6%. In the case of `Cc1ccc(C(=O)NCC2(N(C)C)CCCCC2)o1`, the inhibition is reported as inactive: -18.3%. `CCCOc1ccc(C(=O)NCC2(N(C)C)CCCCC2)cc1OC` was tested, and the inhibition was inactive: 0.92%. In the case of `O=C(NCC1(N2CCCCC2)CCCCC1)c1cncc(Br)c1`, the inhibition is reported as inactive: 6.56%. In the case of `CN1CCC(Nc2cccc(F)c2)CC1`, the inhibition is reported as inactive: -7.36%. In the case of `CSc1ccccc1C(=O)NCC1(N2CCCCC2)CCCCC1`, the inhibition is reported as inactive: 3.79%. In the case of `Cc1cccc(NC2(C#N)CCN(Cc3ccccc3)CC2)c1`, the inhibition is reported as inactive: -19.2%. `COc1ccc(C(=O)NCC2(N3CCCCC3)CCCCC2)cc1` was tested, and the inhibition was inactive: 12.9%. `CCC(c1nnnn1C1CCCC1)N1CCC(n2c(=O)[nH]c3ccccc32)CC1` (stereo unspecified) was tested, and the inhibition was inactive: 13%. `COc1ccc(C(=O)NCC2(N3CCCCC3)CCCCC2)c(OC)c1OC` was tested, and the inhibition was inactive: 7.78%. For `CC(C)(C)OC(=O)N1CCC(N(C(=O)c2ccccc2)c2ccc(F)cc2)CC1`, the inhibition was inactive: -3.15%. `O=C(NCC1(N2CCCCC2)CCCCC1)c1ccc(=O)[nH]c1` was tested, and the inhibition was inactive: -12%. For `CCCCn1nnnc1C(c1cccs1)N1CCC(n2c(=O)[nH]c3ccccc32)CC1` (stereo unspecified), the inhibition was active: 59.9%. For `CCCCn1nnnc1C(CC)N1CCC(n2c(=O)[nH]c3ccccc32)CC1` (stereo unspecified), the inhibition was inactive: 30.8%. For `O=C(NCC1(N2CCCCC2)CCCCC1)c1cccs1`, the inhibition was inactive: -5.5%. With `O=c1[nH]c2ccccc2n1C1CCN(C(c2cc3ccccc3o2)c2nnnn2C2CCCCC2)CC1` (stereo unspecified) the inhibition was inactive: 39.5%. With `O=C(OC1CN2CCC1CC2)C1c2ccccc2Oc2ccccc21` (stereo unspecified) the inhibition was inactive: -6.1%. `N#CC1(Nc2ccccc2)CCN(Cc2ccccc2)CC1` was tested, and the inhibition was inactive: -6.65%. With `O=C(NCC1(N2CCCCC2)CCCCC1)c1ccc(Cl)s1` the inhibition was inactive: -10.8%. For `COc1ccc(Cl)cc1C(=O)NCC1(N2CCOCC2)CCCCC1`, the inhibition was inactive: -9.02%. `CCOC(=O)N1CCC(Nc2ccc(OC)cc2)CC1` was tested, and the inhibition was inactive: -12.7%. With `CCCCn1nnnc1C(c1ccc(OC)cc1)N1CCC(n2c(=O)[nH]c3ccccc32)CC1` (stereo unspecified) the inhibition was inactive: 11.3%. `O=c1[nH]c2ccccc2n1C1CCN(C(c2ccccc2OC(F)(F)F)c2nnnn2C2CCCCC2)CC1` (stereo unspecified) was tested, and the inhibition was inactive: 17.9%. In the case of `O=C(NCC1(N2CCCCC2)CCCCC1)c1ccc(Cl)nc1`, the inhibition is reported as inactive: -30.6%. For `Cc1cc(C)cc(N(C(=O)c2ccccc2)C2CCN(C(=O)OC(C)(C)C)CC2)c1`, the inhibition was inactive: -24.8%. In the case of `O=C(NCC1(N2CCOCC2)CCCCC1)c1cc2ccccc2o1`, the inhibition is reported as inactive: 14.6%. With `O=C(NCC1(N2CCCCC2)CCCCC1)c1ccc(F)cc1` the inhibition was inactive: -3.25%. `CCCCOc1ccc(C(=O)NCC2(N3CCOCC3)CCCCC2)cc1` was tested, and the inhibition was inactive: -3.48%. In the case of `O=P1(N(CCCl)CCCl)SCCCS1`, the inhibition is reported as inactive: -19.1%. In the case of `CCCCn1nnnc1C(c1cc2ccccc2o1)N1CCC(n2c(=O)[nH]c3ccccc32)CC1` (stereo unspecified), the inhibition is reported as active: 53.7%. In the case of `CCOC(=O)N1CCC(Nc2ccc(F)cc2)CC1`, the inhibition is reported as inactive: -12.8%. `COc1ccc(NC2CCN(CCc3ccccc3)CC2)c(OC)c1` was tested, and the inhibition was inactive: 7.94%. `CC(C)(C)n1nnnc1C(c1ccccc1)N1CCC(n2c(=O)[nH]c3ccccc32)CC1` (stereo unspecified) was tested, and the inhibition was inactive: 17%. `O=C1CCN(Cc2ccccc2)CC1` was tested, and the inhibition was inactive: -3.53%. With `CCOc1ccc(C)cc1CN(CCCl)CCCl` the inhibition was inactive: 10.6%. With `COc1cc(C(=O)NCC2(N(C)C)CCCCC2)ccc1OC(F)F` the inhibition was inactive: -12.4%. For `CCOC(=O)N1CCC(Nc2cccc(C)c2)CC1`, the inhibition was inactive: -26.9%. In the case of `O=c1[nH]c2ccccc2n1C1CCN(C(c2cccc3ccccc23)c2nnnn2C2CCCC2)CC1` (stereo unspecified), the inhibition is reported as inactive: 18.4%. In the case of `O=c1[nH]c2ccccc2n1C1CCN(C(c2ccccc2)c2nnnn2C2CCCCC2)CC1` (stereo unspecified), the inhibition is reported as active: 63.4%. `Cc1ccc(C(=O)NCC2(N3CCCCC3)CCCCC2)o1` was tested, and the inhibition was inactive: -19.3%.
